Measured values published in US5045222A, “Use of triacylated ethanolamines as liquid, water-miscible peroxide activators” (Hoechst Aktiengesellschaft, priority 1988, dated 1991).
Only a part of the results on these compounds is given; other tests are left out.

Assays:
[1] = Wash tests in Launder-O-meter at 60° C., red wine stain; conditions: 30 minutes, 25 mg active oxygen per liter, 1.5 g IEC basic washing powder per liter
Procedure: These tests were carried out at 60° C. in water of 15° German hardness in a Launder-O-meter using standard soil cloths WFK 10 G cotton (tea stain) and EMPA cotton No. 114 (red wine stain). The bleaching systems perborate) were added in such amounts that in each case 25 mg of active oxygen were present per liter of washing liquor. The detergent used in each case was 1.5 g of IEC basic washing powder per liter of washing liquor. The washing time was 30 minutes. The bleaching effect was determined as the increase in the reflectance of the various test fabrics. The measurements were processed in the usual manner.

[2] = Washing tests in Launder-O-meter at room temperature, red wine stain; conditions: 25° C., 15 minutes, 3% activator and 10% sodium perborate
Procedure: The following tests were carried out at 25° C. in water of 15° German hardness in a Launder-O-meter using standard soil cloths WFK 10 G cotton (tea stain) and EMPA cotton No. 114 (red wine stain) and the IEC basic washing powder. The detergent composition contained in each case 3% of the activator and 10% of sodium perborate. The washing time was 15 minutes.

In the case of sodium perborate, the Reflectance values [1] is reported as 58.0 and the Reflectance [2] is reported as 51.7.
